Measured values reported in patent US20100184799A1, “OXADIAZOLE BETA CARBOLINE DERIVATIVES AS ANTIDIABETIC COMPOUNDS” (priority 2009, published 2010).

Chains of the proteins cited; added tags and fusions are not shown.
UniProt P32745, whole entry: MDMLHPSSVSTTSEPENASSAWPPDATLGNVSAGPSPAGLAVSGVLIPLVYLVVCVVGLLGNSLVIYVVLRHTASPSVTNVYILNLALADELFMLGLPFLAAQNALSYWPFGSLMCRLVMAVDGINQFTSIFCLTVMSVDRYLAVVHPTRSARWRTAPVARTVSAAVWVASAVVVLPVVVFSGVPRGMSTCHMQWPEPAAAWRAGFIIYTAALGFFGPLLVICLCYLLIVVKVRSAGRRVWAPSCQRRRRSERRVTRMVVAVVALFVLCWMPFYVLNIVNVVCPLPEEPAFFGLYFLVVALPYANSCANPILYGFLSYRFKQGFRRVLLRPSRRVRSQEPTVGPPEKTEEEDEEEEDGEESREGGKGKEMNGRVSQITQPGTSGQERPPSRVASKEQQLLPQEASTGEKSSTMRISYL

Target: SSTR3 (Homo sapiens, UniProt P32745)
Test: SSTR3 receptor-ligand binding assay, (3-125I-Tyr11)-SRIF-14 radioligand, CHO-K1 cell membranes
Conditions: read-out: SSTR3 Ki; cloned human SSTR3, CHO-K1 membranes, 0.1 nM radioligand

Compound | Ki
CCn1nc(C2(c3nnn(C)n3)N[C@@H](c3nc(-c4ccc(F)cn4)c[nH]3)Cc3c2[nH]c2ccccc32)oc1=O (stereo partly drawn) | 22.7 nM
CCn1nc([C@]2(C)N[C@@H](c3nc(-c4ccc(F)cn4)c[nH]3)Cc3c2[nH]c2ccccc32)oc1=O | 31.1 nM
COCc1nc(C2(c3nn(C)c(=O)o3)N[C@@H](c3nc(-c4ccc(F)cn4)c[nH]3)Cc3c2[nH]c2ccccc32)no1 (stereo partly drawn) | 4.7 nM
CSc1nnc(C2(c3cnn(C)c3)N[C@@H](c3nc(-c4ccc(F)cn4)c[nH]3)Cc3c2[nH]c2ccccc32)o1 (stereo partly drawn) | 3 nM
Cn1cc(C2(c3nn(C)c(=O)o3)N[C@@H](c3nc(-c4ccc(F)cc4)c[nH]3)Cc3c2[nH]c2ccccc32)cn1 (stereo partly drawn) | 3.4 nM
Cn1nc(C2(c3cnn(C4CC4)c3)N[C@@H](c3nc(-c4ccc(F)cn4)c[nH]3)Cc3c2[nH]c2ccccc32)oc1=O (stereo partly drawn) | 1.7 nM
Oc1nnc(C2(c3cnn(C4CC4)c3)N[C@@H](c3nc(-c4ccc(F)cn4)c[nH]3)Cc3c2[nH]c2ccccc32)o1 (stereo partly drawn) | 3.2 nM
CCn1nc(C2(c3ccc(C#N)cc3)N[C@@H](c3nc(-c4ccc(F)cn4)c[nH]3)Cc3c2[nH]c2ccccc32)oc1=O (single isomer, unassigned) [16] | 5.6 nM
CCn1nc(C2(c3ccc(C#N)cc3)N[C@@H](c3nc(-c4ccc(F)cn4)c[nH]3)Cc3c2[nH]c2ccccc32)oc1=O (single isomer, unassigned) [17] | 18.3 nM
CCn1nc(C2(c3noc(COC)n3)N[C@@H](c3nc(-c4ccc(F)cn4)c[nH]3)Cc3c2[nH]c2ccccc32)oc1=O (single isomer, unassigned) [40] | 2.3 nM
CCn1nc(C2(c3noc(COC)n3)N[C@@H](c3nc(-c4ccc(F)cn4)c[nH]3)Cc3c2[nH]c2ccccc32)oc1=O (single isomer, unassigned) [41] | 15.9 nM
CCn1nnc(C2(c3nnc(O)o3)N[C@@H](c3nc(-c4ccc(F)cn4)c[nH]3)Cc3c2[nH]c2ccccc32)n1 (single isomer, unassigned) [44] | 250 nM
CCn1nnc(C2(c3nn(C)c(=O)o3)N[C@@H](c3nc(-c4ccc(F)cn4)c[nH]3)Cc3c2[nH]c2ccccc32)n1 (single isomer, unassigned) [46] | 2.9 nM
CCn1nnc(C2(c3nn(C)c(=O)o3)N[C@@H](c3nc(-c4ccc(F)cn4)c[nH]3)Cc3c2[nH]c2ccccc32)n1 (single isomer, unassigned) [47] | 35 nM
Cn1cc(C2(c3nnc(O)o3)N[C@@H](c3nc(-c4ccc(F)cn4)c[nH]3)Cc3c2[nH]c2ccccc32)cn1 (single isomer, unassigned) [Example 20] | 398 nM

Continued, values first:

Ki | Compound
2.2 nM | CCn1cc(C2(c3nnc(O)o3)N[C@@H](c3nc(-c4ccc(F)cc4)c[nH]3)Cc3c2[nH]c2ccccc32)cn1 (stereo partly drawn)
4.7 nM | COCc1nc(C2(c3nnc(O)o3)N[C@@H](c3nc(-c4ccc(F)cn4)c[nH]3)Cc3c2[nH]c2ccccc32)no1 (stereo partly drawn)
4.2 nM | Cc1nc(C2(c3nnc(N)o3)N[C@@H](c3nc(-c4ccc(F)cc4)c[nH]3)Cc3c2[nH]c2ccccc32)no1 (stereo partly drawn)
15.7 nM | Cc1nc(C2(c3nnc(O)o3)N[C@@H](c3nc(-c4ccc(F)cc4)c[nH]3)Cc3c2[nH]c2ccccc32)no1 (stereo partly drawn)
570 nM | Cn1nnc(C2(c3nnc(O)o3)N[C@@H](c3nc(-c4ccc(F)cn4)c[nH]3)Cc3c2[nH]c2ccccc32)n1 (stereo partly drawn)
2.2 nM | Cn1cc(C2(c3nnc(O)o3)N[C@@H](c3nc(-c4ccc(F)cc4)c[nH]3)Cc3c2[nH]c2ccccc32)cn1 (single isomer, unassigned) [18]
23.6 nM | Cn1cc(C2(c3nnc(O)o3)N[C@@H](c3nc(-c4ccc(F)cc4)c[nH]3)Cc3c2[nH]c2ccccc32)cn1 (single isomer, unassigned) [19]
10.4 nM | CCn1nnc(C2(c3nnc(O)o3)N[C@@H](c3nc(-c4ccc(F)cn4)c[nH]3)Cc3c2[nH]c2ccccc32)n1 (single isomer, unassigned) [45]
1.3 nM | Cn1cc(C2(c3nnc(N)o3)N[C@@H](c3nc(-c4ccc(F)cc4)c[nH]3)Cc3c2[nH]c2ccccc32)cn1 (single isomer, unassigned) [Example 52]
